From patent US20010010919A1 (published 2001)

By UniProt entry, the sequences of proteins in these tests, tags left out. Where a name states a change or a piece, a line headed by the entry shows the natural chain unless it says otherwise.
UniProt P35370: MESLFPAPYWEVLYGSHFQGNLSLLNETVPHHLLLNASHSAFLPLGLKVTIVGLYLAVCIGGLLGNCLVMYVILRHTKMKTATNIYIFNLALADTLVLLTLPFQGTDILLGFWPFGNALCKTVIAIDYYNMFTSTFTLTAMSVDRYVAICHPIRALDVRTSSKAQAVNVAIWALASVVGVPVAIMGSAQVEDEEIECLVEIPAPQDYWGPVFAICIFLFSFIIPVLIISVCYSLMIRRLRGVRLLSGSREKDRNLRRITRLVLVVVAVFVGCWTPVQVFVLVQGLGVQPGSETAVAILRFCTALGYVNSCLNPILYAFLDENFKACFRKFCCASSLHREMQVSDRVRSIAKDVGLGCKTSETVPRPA

Legend:
[1] = target: T1, orphanin FQ receptor (rat, UniProt P35370 1-367); assay: saturation binding of 125I-ligand to membranes of OFQR-transfected CHO cells (LC-7), scintillation proximity, Scatchard analysis
T1 construct: Entire coding region (367 aa) from a rat brain cDNA library; Assayed on whole cells or isolated membranes; also called OFQR; OFQ receptor
T1 chain: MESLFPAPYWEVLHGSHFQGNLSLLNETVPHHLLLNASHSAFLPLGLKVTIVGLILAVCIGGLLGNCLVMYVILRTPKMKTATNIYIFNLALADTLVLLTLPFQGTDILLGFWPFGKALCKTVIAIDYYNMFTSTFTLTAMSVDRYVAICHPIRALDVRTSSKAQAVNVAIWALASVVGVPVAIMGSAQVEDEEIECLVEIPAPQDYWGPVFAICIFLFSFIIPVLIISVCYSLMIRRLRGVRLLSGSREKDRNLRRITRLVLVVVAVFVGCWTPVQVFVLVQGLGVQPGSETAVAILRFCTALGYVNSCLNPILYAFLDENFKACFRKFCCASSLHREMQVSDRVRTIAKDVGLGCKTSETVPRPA

[2] = target: T1, orphanin FQ receptor; assay: cell-based or functional assay
[3] = target: T2, µ opioid receptor expressed in CHO cells; assay: competition with [3H]diprenorphine (0.36 nM) on membranes of µ receptor-expressing CHO cells
T2 chain: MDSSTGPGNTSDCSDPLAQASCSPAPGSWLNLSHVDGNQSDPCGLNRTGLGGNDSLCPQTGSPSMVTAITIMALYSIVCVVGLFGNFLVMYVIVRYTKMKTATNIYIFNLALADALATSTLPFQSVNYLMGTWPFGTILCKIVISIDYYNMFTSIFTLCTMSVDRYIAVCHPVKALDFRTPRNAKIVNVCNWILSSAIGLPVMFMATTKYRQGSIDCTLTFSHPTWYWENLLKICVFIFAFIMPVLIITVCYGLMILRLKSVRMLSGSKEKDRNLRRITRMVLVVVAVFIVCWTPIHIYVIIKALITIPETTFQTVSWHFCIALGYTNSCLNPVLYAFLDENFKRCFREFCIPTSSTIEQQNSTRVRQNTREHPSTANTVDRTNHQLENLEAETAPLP
Procedure: Stable transfected-CHO cells were rinsed three times with 50 mM Tris-HCl buffer (pH 7.7), harvested and homogenized in the same buffer using a glass-Teflon homogenizer at 4° C. The homogenate was centrifuged at 42,000 g at 4° C. for 15 minutes. The pellet was resuspended in 50 mM Tris-HCl buffer and incubated at room temperature for one hour. Following pre-incubation, the homogenate was centrifuged as described above and the pellet was stored at 70° C. until used. The pellet was thawed, washed with 50 mM Tris-HCl buffer and the homogenate was centrifuged as above. The pellet was resuspended in the binding buffer and the protein concentration was adjusted to 100 μg/μl as determined by a standard curve determined by Lowry assay using bovine serum albumin as the standard.
Binding reactions were conducted in an incubation tube with 50 mM Tris-HCl buffer (pH 7.7) in the presence of 10 micromolar peptidase inhibitor bestatin at 25° C. for 60 minutes in a total volume of 1 ml using a final [³H]diprenorphine concentration of 0.36 nM. All of the tubes contained the membrane preparation and [³H]diprenorphine. A ligand of interest was also added to each membrane/diprenorphine preparation. […] Each of the ligands of interest was present in a concentration from zero in order of magnitude up to 100 micromolar. […]

B1: monoiodo-Y14-orphanin FQ (peptide)
peptide: FGGFTGARKSARKYANQ
modifications: monoiodotyrosine at position 14 (125I in the binding assay; chloramine T method)
notes: Monoiodinated form of the Y14 analogue; also called I-Y14; monoiodinated Y14-orphanin FQ
Question: How did the Kd [1] turn out when B1 was run?
Answer: 0.1 nM

Question: And the “EC50, cAMP inhibition assay” value [2]?
Answer: 3 nM

B2: Tyr-DAla-Gly-Met-Phe-Gly-ol (DAMGO) (peptide)
peptide: YAGFG
modifications: D-Ala at 2; printed 'Met-Phe' read as N-methyl-Phe at 4; C-terminal Gly-ol
notes: Synthetic µ agonist peptide; also called [3H]-DAMGO
Question: How did the IC50 [3] turn out when B2 was run?
Answer: 2 nM
